Measured affinities in a library of Ab-14 light chain variants

Values reported by Li et al. 2023, doi:10.1038/s41467-023-39022-2 (FLAb copy).

All variants were tested on one target, the spike HR2 peptide PDVDLGDISGINAS (SARS-CoV-2).

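Phage display of a naive human antibody library on the peptide gave the parent. Designed CDR sequences, proposed from the first random library and measured here. Their group label is 14L_En_HC (En: ensemble of fine-tuned language models; HC: hill climbing; a sequence that several methods proposed may carry one label only). Affinity was read by AlphaSeq, a pooled yeast mating assay with surface-displayed partners. Binding brings cells together so that they mate, and sequencing counts the barcode pairs among the diploids. Scores were corrected for input abundance and mapped to Kd with protein pairs of known affinity run in the same pool. The assay was run in six technical replicates.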

Parent scFv Ab-14: VH joined to VL by a (GGGGS)3 linker. Changes lie in the light chain CDRs alone.
VH: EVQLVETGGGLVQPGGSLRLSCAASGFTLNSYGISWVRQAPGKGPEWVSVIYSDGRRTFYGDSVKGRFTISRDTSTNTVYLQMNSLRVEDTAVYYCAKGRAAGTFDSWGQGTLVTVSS
VL: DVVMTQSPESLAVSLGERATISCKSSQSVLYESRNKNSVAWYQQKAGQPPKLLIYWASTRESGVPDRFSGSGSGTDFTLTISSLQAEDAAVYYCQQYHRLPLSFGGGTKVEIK

Variants are written as CDR1, CDR2 and CDR3 of the light chain (limits as in the source). Parent: KSSQSVLYESRNKNSVA, WASTRES, QQYHRLPLS.
Scale: log10 of Kd in nM, estimated from mating counts; low values are strong binders.
"ND" means that the variant was in the library but no mating with the target was seen in that replicate; the authors take this as a sign of poor binding, and no number exists.
The parent sequence was in this pool as ten entries: three were never detected, three once, and four in most replicates, with averages from 0.34 to 2.37.
The range of this assay differs from that of the first round, and the authors advise against merging the two.
As a blank, each scFv also met three strains without target: over all light chain designs, 4% of these pairings were detected, typically at 2.64 and seldom below 1.59. The control count says in how many pairings with the empty strains this scFv gave a signal, with their mean in brackets.
The authors averaged sequences with at least three values out of six and counted those with two or fewer as poor binders.

CDR-L1 | CDR-L2 | CDR-L3 | log10 Kd, replicates | control signals
MLMQVGGYEMNAHNSIA | DLRTREN | QQYHRLPLS | 2.59 / 1.01 / 2.43 / 2.06 / 1.91 / ND | 0/18
KISQTVLYQGRTWNAVA | QMSTREN | QQYDRLPLS | 1.52 / 1.26 / 2.16 / 0.86 / 1.49 / 1.81 | 0/18
KISQTFNVGTKNKNSLA | EMSTREG | QDYHRLPLS | ND / ND / ND / ND / 0.93 / ND | 0/18
TISQLMYYESRNKNNVA | GTSTRES | QCYHRLPLS | 0.26 / 0.24 / 0.20 / 0.22 / 0.26 / 0.33 | 2/18 (2.62)
TVSQVHEMLSHIKNSVA | DMNTRES | QQYDRLPLS | ND / ND / ND / ND / ND / ND | 0/18
TLSDVMYMESRNYNSVA | DLVKRES | QQYHRLPLS | 0.11 / 0.09 / 0.17 / -0.30 / 0.04 / 0.21 | 1/18 (2.31)
MISDLMLYGARNKNPIA | NASTREY | QQYHRLPLE | 0.92 / 0.78 / 0.54 / 0.78 / 0.85 / 0.79 | 0/18
KLRQVTEYESFYKNSVA | QTSTRES | QDYDRLPLS | 0.43 / 0.64 / 0.48 / 0.62 / 0.74 / 0.87 | 1/18 (2.96)
MFSQLVYTGQRTRNAVA | QASTREN | QQYHHLPLS | 1.52 / 1.23 / 1.73 / 1.19 / 0.59 / 1.61 | 0/18
MIAESVGYQSRQKNNVA | DNSTRES | QCYDRLPLS | ND / ND / ND / 2.80 / ND / ND | 2/18 (2.27)
HVSEMTFAQMKARNSVA | ENNTRED | QQYDRLPLS | ND / ND / ND / ND / ND / ND | 2/18 (2.61)
KISGLVNFFGHAINSVA | EMETREK | QQYDRLPLS | 0.90 / 1.06 / 0.70 / 0.59 / 0.67 / 1.09 | 1/18 (4.87)
IISQVDDYLMHNTNSIA | DQTTRGS | QQYDRLPLS | 1.86 / ND / 1.36 / 2.43 / 2.82 / 2.24 | 0/18
KLSVSYYFEQLEKNSIA | ENSTREK | QHYHRLPLS | ND / ND / ND / ND / ND / ND | 0/18
MISDLTMYGSRNKNSVA | DLSTRGS | QQYDRLPLS | 0.54 / 0.41 / 0.38 / 0.29 / 0.20 / 0.39 | 2/18 (2.96)
MISDMGLHDSRIRNSVA | NNSTREA | QQYDRLPLS | -0.12 / 0.35 / 0.34 / 0.12 / -0.20 / 0.50 | 2/18 (2.72)
TISQSTYWESFNKNSVA | QTSTRLE | QDYDRLPLS | 2.18 / ND / ND / 3.09 / ND / 4.43 | 1/18 (3.11)
KLRQVMHIESFNKNNVA | EMTTRES | QSYDRLPLS | ND / 1.87 / ND / ND / 2.45 / ND | 0/18
KLRQVTGYESYVRNSVA | QTSTRAE | QDYHRLPLS | 1.15 / 1.13 / 0.73 / 1.12 / 1.05 / 1.23 | 2/18 (2.84)
KISQSILFMSGMKNAIA | QMEMREE | QQYNRLPLS | 1.10 / 1.19 / 0.86 / 0.75 / 0.82 / 1.40 | 0/18
KISMLYNYASTNKNSIA | EMTTREQ | QHYHRLPLS | 0.94 / 1.02 / 1.04 / 0.92 / 0.73 / 1.32 | 1/18 (3.59)
TLGQSTMVESYNKNSVA | QAETREE | QDYHRLPLS | ND / ND / 2.53 / ND / ND / 3.04 | 2/18 (3.26)
KLSDVAHFESRKKNSVA | ENSTRES | QQYDHLPLS | 1.39 / 1.46 / 1.25 / ND / 2.08 / 1.83 | 0/18
ALSHSMDMTSRNVNSVA | DLTTREN | QQYHRLPLS | 0.17 / 0.25 / -0.12 / -0.39 / 0.29 / 0.39 | 2/18 (1.75)
HLLQTVMYGSTRKNSVA | HAVTREN | QQYHRLPLS | 1.85 / 2.00 / 1.41 / 1.64 / 1.22 / 1.81 | 1/18 (3.55)
KISMATTFESRNHNSVA | ENSTREA | QSYHRLPLS | ND / ND / ND / ND / ND / ND | 1/18 (2.50)
IFSQSVLMGNLTKNSVA | QASERFS | QQYHRLPLI | 1.01 / 1.30 / 0.97 / 1.27 / 1.56 / 1.04 | 0/18
HLSQSVDLESVHKNSIA | DLMTRTS | QQYHRLPLS | 0.39 / 0.12 / 0.00 / -0.02 / 0.08 / 0.15 | 0/18
TIGQSTLMESRQKNNVA | QMSTREK | QQYDRLPLS | 0.10 / -0.03 / 0.14 / 0.26 / -0.01 / -0.01 | 0/18
KLLQEVTGHSRNRNSVA | HNSTRED | QQYDRLPLA | ND / ND / ND / ND / 2.08 / ND | 1/18 (2.44)
ILYDSVGTLSRNKYSVA | DNSTRES | QQYDRLPLS | 1.79 / 2.08 / 2.03 / 1.29 / 1.99 / 1.22 | 1/18 (2.28)
MISDLTMYGSRNINSVA | DLSTRGS | QQYHRLPLS | 0.30 / 0.21 / -0.33 / 0.24 / 0.12 / 0.18 | 0/18
KISFQYRYEQLSKNNIA | EVVTRLK | QQYHRLPLS | ND / 1.76 / 1.16 / 1.60 / 2.49 / 1.53 | 0/18
TLTQVTMVESYNKSSVA | QASTRLE | QDYHRLPLS | 1.45 / 1.33 / 1.18 / 1.75 / 1.11 / 1.22 | 2/18 (1.58)
KLTMMFQHTSKNKNNIA | ERSTREE | QQYHHLPLS | 0.03 / 0.33 / 0.03 / 0.14 / -0.22 / 0.33 | 1/18 (2.30)
IISQSFLGEYHNKNSVA | QTSERGS | QQYDHLPLS | 0.36 / 1.82 / 0.62 / 0.78 / 1.02 / 1.22 | 0/18
MLSDLVKMGQRNTNSVA | DNSTRGS | QQYDRLPLS | 1.72 / ND / 2.93 / ND / ND / 2.19 | 1/18 (2.66)
KIMQSLNYEQFNVSSVA | GQETRER | QSYHRLPLS | ND / 2.50 / 2.38 / 2.40 / 2.45 / 2.72 | 3/18 (2.76)
KLSQSVRMESFQKNSVA | ENSTREA | QDYHRLPLS | ND / 2.68 / 2.44 / ND / ND / ND | 2/18 (2.30)
MITAMLRGVGRDKNSVA | NAQTRES | QHYHRLPLS | 1.19 / 1.32 / 2.52 / 1.44 / ND / 1.64 | 1/18 (2.16)
TISQSVLMTGLNRNSVA | QASERIE | QQYERLPLS | 0.16 / -0.17 / -0.13 / 0.01 / -0.01 / 0.19 | 0/18

For reference, 3 entries of the list once more:

CDR-L1,CDR-L2,CDR-L3,"log10 Kd, replicates",control signals
KISQSILFMSGMKNAIA,QMEMREE,QQYNRLPLS,1.10 / 1.19 / 0.86 / 0.75 / 0.82 / 1.40,0/18
MISDLTMYGSRNINSVA,DLSTRGS,QQYHRLPLS,0.30 / 0.21 / -0.33 / 0.24 / 0.12 / 0.18,0/18
KLTMMFQHTSKNKNNIA,ERSTREE,QQYHHLPLS,0.03 / 0.33 / 0.03 / 0.14 / -0.22 / 0.33,1/18 (2.30)